{"source": "ChEMBL document CHEMBL5385856", "about": "“Novel 1,4,5,6-tetrahydrocyclopenta[d]imidazole-5-carboxamide-based JNK3 inhibitors: Design, synthesis, molecular docking, and therapeutic potential in neurodegenerative diseases” (Eur J Med Chem, 2023)", "assay": "Selectivity ratio of IC50 for inhibition of JNK2 (unknown origin) to IC50 for inhibition of JNK3 (unknown origin)", "data": [{"smiles": "NC(=O)C1Cc2nc(-c3ccc(Cl)c(Cl)c3)n(-c3ccnc(N[C@H]4CCCN(C(=O)C5CC5)C4)n3)c2C1", "note": "(stereo partly specified)", "values": [{"measurement": "Ratio IC50", "result": 78}]}]}
